Molecular target: P-glycoprotein (Homo sapiens, UniProt P08183)
Procedure: P-glycoprotein inhibition has been determined with an in vitro assay. […] Therefore, the initial pool of compounds screened included excipients that were acceptable for oral or IV use and included PEG in the chemical structure. Compounds were first screened for toxicity in the NIH3T3 cell line and then tested for P-gp inhibition with paclitaxel using the protocol outlined below:
Day 0: Seed cells and incubate.
Day 1: Add potential P-gp inhibitor at fixed concentration and paclitaxel at various concentrations and incubate for 2 days.
Day 3: Add MTT and extraction/lysis buffer.
Day 4: Read absorbance to measure cell growth. Calculate IC50 to determine amount of paclitaxel required for cell death
After calculations of IC50 values, relative rank order of the compounds were determined.

Protein sequences, listed by entry. Tags and fused reporters are not part of them.
UniProt P08183, whole entry: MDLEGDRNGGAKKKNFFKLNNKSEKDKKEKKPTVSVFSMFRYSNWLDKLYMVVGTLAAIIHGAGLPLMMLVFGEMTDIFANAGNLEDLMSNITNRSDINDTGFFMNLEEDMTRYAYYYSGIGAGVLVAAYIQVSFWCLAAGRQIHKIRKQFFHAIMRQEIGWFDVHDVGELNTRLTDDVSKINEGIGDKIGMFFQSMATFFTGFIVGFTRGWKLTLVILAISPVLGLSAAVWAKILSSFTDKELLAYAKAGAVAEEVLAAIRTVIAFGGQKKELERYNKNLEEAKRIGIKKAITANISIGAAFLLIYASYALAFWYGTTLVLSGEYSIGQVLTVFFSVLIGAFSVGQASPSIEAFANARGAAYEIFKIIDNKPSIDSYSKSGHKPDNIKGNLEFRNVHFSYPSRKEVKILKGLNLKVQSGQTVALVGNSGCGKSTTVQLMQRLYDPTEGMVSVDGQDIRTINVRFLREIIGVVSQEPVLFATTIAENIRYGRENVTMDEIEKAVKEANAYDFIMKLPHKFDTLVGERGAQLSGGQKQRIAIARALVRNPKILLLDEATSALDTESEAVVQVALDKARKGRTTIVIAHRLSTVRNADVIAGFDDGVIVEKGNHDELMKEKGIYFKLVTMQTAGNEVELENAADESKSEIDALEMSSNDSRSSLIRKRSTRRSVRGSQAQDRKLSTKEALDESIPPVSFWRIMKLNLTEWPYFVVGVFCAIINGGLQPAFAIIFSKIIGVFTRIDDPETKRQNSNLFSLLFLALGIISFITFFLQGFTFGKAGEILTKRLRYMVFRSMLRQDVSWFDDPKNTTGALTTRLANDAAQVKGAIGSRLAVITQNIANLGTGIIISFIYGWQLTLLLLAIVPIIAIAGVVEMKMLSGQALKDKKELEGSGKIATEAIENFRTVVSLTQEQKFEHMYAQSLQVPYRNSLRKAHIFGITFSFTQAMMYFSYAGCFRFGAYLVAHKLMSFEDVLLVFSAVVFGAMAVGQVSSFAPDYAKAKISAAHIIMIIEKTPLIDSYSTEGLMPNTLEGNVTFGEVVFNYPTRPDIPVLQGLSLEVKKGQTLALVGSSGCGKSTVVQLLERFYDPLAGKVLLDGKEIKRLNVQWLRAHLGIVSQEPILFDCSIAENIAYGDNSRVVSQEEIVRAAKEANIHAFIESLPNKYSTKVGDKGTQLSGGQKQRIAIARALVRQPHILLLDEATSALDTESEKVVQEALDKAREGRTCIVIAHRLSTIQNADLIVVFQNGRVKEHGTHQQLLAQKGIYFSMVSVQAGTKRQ

Substance: polysorbate 60
- P-gp inhibition measured by an IC50 ratio: > 1.0

Substance: polysorbate 85
- P-gp inhibition measured by an IC50 ratio: > 1.0

Substance: PEG-25 stearate
- P-gp inhibition measured by an IC50 ratio: > 1.0

Substance: PEG-12 stearate
- P-gp inhibition measured by an IC50 ratio: > 1.0

Substance: Macrogol-15 hydroxystearate [Solutol HS]
- P-gp inhibition measured by an IC50 ratio: > 1.0

Substance: PEG-30 stearate
- P-gp inhibition measured by an IC50 ratio: > 1.0

Substance: PEG-20 stearate
- P-gp inhibition measured by an IC50 ratio: > 1.0

Substance: PEG-40 stearate
- P-gp inhibition measured by an IC50 ratio: > 1.0

Substance: PEG-45 stearate
- P-gp inhibition measured by an IC50 ratio: > 1.0

Substance: polysorbate 40
- P-gp inhibition measured by an IC50 ratio: > 1.0

Substance: PEG 50 stearate
- P-gp inhibition measured by an IC50 ratio: > 1.0
